The values below come from ChEMBL document CHEMBL5113442, “Discovery of agonist-antagonist pairs for the modulation of Ca [2]+ and voltage-gated K+ channels of large conductance that contain beta1 subunits” (Bioorg Med Chem, 2022).

The experiment relates to CHO. The experiment in a line: Agonist activity at rat BK calcium channel alphabeta1 expressed in CHO cells assessed as fold increase in current amplitude at 0.0001 to 33.3 uM by automated whole cell patch clamp analysis. The format is cell-based. The settings on record: filed as agonist, dose 0.0001-33.3 µM.
Consider `O=C1NC(=O)N(c2ccc(F)cc2)C(=O)/C1=C/c1cc(Br)ccc1OCc1cccc([N+](=O)[O-])c1`, for which the fold change (FC) was 10.3.
As to `C/C(=C/C(=O)C[C@H](C)C(=O)O)[C@@H]1CC(=O)[C@@]2(C)C3=C(C(=O)C[C@]12C)[C@@]1(C)CCC(=O)C(C)(C)[C@@H]1C[C@@H]3O`, the fold change (FC) amounted to 8.04.
Then `CC[C@@H](C)NS(=O)(=O)c1cc([N+](=O)[O-])ccc1Oc1c(C)c(C(=O)NC[C@@H]2CCCO2)nn1-c1cccc(C)c1C`, with 4.56; and `O=C(Nc1ccc(F)cc1)c1nnc(/C(Cl)=C\c2cccc([N+](=O)[O-])c2)s1`, with 6.83.
